In article PMC7723054:
Some of the results follow.

T1: LIN28A (human?, UniProt Q9H9Z2 1-209)
T1 sequence: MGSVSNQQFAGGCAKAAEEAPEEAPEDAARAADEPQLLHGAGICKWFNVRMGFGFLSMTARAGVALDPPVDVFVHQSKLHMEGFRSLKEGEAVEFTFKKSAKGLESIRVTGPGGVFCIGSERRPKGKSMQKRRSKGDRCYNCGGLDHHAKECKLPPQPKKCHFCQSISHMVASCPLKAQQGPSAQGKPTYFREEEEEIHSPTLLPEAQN

T2: CIRBP (Homo sapiens, UniProt Q14011 1-172)
T2 sequence: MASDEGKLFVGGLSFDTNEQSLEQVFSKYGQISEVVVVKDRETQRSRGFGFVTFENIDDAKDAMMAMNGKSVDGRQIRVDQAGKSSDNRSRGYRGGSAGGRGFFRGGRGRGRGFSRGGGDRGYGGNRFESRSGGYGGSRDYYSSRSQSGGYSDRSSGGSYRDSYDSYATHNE

T3: DHX36 (Homo sapiens, UniProt Q9H2U1 1-1008)
T3 sequence: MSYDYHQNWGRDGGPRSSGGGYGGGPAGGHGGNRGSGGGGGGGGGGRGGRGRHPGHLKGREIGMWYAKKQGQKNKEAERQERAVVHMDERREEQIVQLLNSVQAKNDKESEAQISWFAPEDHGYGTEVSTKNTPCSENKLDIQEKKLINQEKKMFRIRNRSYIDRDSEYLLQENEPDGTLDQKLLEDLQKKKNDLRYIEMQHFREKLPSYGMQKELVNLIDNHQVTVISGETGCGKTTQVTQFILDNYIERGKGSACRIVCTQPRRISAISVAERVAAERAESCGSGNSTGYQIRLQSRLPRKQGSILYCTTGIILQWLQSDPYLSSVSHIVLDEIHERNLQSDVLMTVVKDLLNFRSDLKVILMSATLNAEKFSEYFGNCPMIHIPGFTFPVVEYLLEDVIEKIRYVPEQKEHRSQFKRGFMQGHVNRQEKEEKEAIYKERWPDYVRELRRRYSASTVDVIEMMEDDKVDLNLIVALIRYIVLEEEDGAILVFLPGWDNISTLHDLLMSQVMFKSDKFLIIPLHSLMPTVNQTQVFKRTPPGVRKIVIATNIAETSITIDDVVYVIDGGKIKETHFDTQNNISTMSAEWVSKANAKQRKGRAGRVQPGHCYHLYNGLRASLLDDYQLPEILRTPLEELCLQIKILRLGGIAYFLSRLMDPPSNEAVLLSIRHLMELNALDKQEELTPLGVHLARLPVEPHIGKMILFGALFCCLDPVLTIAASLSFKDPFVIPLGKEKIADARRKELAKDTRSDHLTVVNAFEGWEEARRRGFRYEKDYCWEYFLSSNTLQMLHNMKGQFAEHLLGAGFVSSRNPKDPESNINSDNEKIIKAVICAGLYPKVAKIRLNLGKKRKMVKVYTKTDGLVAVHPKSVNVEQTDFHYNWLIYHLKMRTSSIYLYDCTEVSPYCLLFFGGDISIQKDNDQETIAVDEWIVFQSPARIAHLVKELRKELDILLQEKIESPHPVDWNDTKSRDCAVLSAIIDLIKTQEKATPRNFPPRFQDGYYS

B1: hsa-mir-6887 (structured_RNA)
RNA: GGGAGGCGAUCGUACCCGUAAGAAUCGCGGUGUACGAAGUUUCAGCAGGACACAGGCUGGCACUGAGGUCCCGCUGAAGCUUCGUGCAC
B2: hsa-mir-655 (structured_RNA)
RNA: GGGAAACCGAGGCAUUAUAUCACACGGUGGUGUACGAAGUUUCAGCAUGUUCGCUUCAUUCAUCAUGAAUAAGCUGAAGCUUCGUGCAC
B3: hsa-mir-433 (structured_RNA)
RNA: GGGAUCCUGAGACAAUCGAGUAUCAAUGGGUGUACGAAGUUUCAGCUUAUUCAGAGAGGCUAGAUCCUCUGUGUUGAGAAGGAUCAGCUGAAGCUUCGUGCAC
B4: hsa-mir-8060 (structured_RNA)
RNA: GGGAUCCAAGGCACGCGGAAGUAAACUUGGUGUACGAAGUUUCAGCUGGUCAGAUAUCCCAUGCUGAAGCUUCGUGCAC
B5: hsa-mir-600 (structured_RNA)
RNA: GGGAAGUGGACCCAACUUAAUAUUGCGCGGUGUACGAAGUUUCAGCCAGGCAGUGGAGUUACUUGCUGAAGCUUCGUGCAC
B6: hsa-mir-670 (structured_RNA)
RNA: GGGAAAUCAGCACUACCUGACGGAGAGGGGUGUACGAAGUUUCAGCGUGAACCUGAAUUUGCCUUGGGUUUCCUGCUGAAGCUUCGUGCAC
B7: hsa-mir-4644 (structured_RNA)
RNA: GGGAGAUUAGAUAAGCAGUCGAACUACGGGUGUACGAAGUUUCAGCUCCACCCUGGUCCAGGUCCACAGCAGUGGAGCUGAAGCUUCGUGCAC
B8: hsa-mir-338 (structured_RNA)
RNA: GGGAACUUGCAUGACGUAUCUUCACGCGGGUGUACGAAGUUUCAGCUGAGUGAUGACUCAGGCGACUCCAGCUGAAGCUUCGUGCAC
B9: hsa-mir-6512 (structured_RNA)
RNA: GGGAUACGGUGGACCACAGAUAAUCGAUGGUGUACGAAGUUUCAGCGGAAGAAGGCUGAGGGAGAUGCCUUCUUCCGCUGAAGCUUCGUGCAC
B10: hsa-mir-4316 (structured_RNA)
RNA: GGGACGCCGGAGGUCAAAGUCUUAGGUAGGUGUACGAAGUUUCAGCUGUGGUCACCCACUCUGCUGAAGCUUCGUGCAC
B11: hsa-mir-4692 (structured_RNA)
RNA: GGGACUCCAACGUUGUUCACCCAUGAUCGGUGUACGAAGUUUCAGCCUGGGUGGGACACUCAGGCUGAAGCUUCGUGCAC
B12: hsa-mir-6739 (structured_RNA)
RNA: GGGAACAAGACGCACUGGUAGCCCACAAGGUGUACGAAGUUUCAGCCAAGUAAAAGGAAUUUUCAUUUUCCAGCCCCUAAUUGGCUGAAGCUUCGUGCAC
B13: hsa-mir-6812 (structured_RNA)
RNA: GGGAAAGCAUUGUUAGACAAAGGACCCUGGUGUACGAAGUUUCAGCGCAGCCAGUCCUGUCUCACCGCGCUGAAGCUUCGUGCAC
B14: hsa-mir-517a (structured_RNA)
RNA: GGGAACGGAGAUAAGCGACGAAUAGCACGGUGUACGAAGUUUCAGCCUGUCUGUUGUAUAAAAGAAAAGAUCGGCUGAAGCUUCGUGCAC
B15: hsa-mir-548f-5 (structured_RNA)
RNA: GGGAAGUCUUAGGAUUGGGCGACACUAUGGUGUACGAAGUUUCAGCUUUUUCCAUUGUAAGUAAUGGGAAAAGCUGAAGCUUCGUGCAC
B16: hsa-mir-6769a (structured_RNA)
RNA: GGGAAACCACUCGGCGAGCAAAGUUGUUGGUGUACGAAGUUUCAGCCCCUCAUAUGGCAGUUGGCGAGGGCCCAGUGAGGCUGAAGCUUCGUGCAC
B17: hsa-mir-25 (structured_RNA)
RNA: GGGAGCGAGACUGACGACUCUUCCUGAUGGUGUACGAAGUUUCAGCAUUGCUGGACGCUGCCCUGGGCAUGCUGAAGCUUCGUGCAC
B18: hsa-mir-6857 (structured_RNA)
RNA: GGGACAGGAUUAACCAGCAAAGCCGAUUGGUGUACGAAGUUUCAGCGCCAGUGUUCAAGGGCCCCUCCUCUAGUACUCCCUGUUUGUGUUCUGCCACUGAGCUGAAGCUUCGUGCAC
B19: hsa-mir-6754 (structured_RNA)
RNA: GGGAGGAUUGGAGCUCGUACCCUCACUCGGUGUACGAAGUUUCAGCUGGAGGAGUCUGGUGGCCUGUUCUCUUGCUGAAGCUUCGUGCAC
B20: hsa-mir-5739 (structured_RNA)
RNA: GGGACUGGGCCGUAAAACACCUGAGUAUGGUGUACGAAGUUUCAGCCCAAGGUUGUGCUUUUAGGAAAUGUUGGCUGUCCUGCGGGCUGAAGCUUCGUGCAC
B21: hsa-mir-5700 (structured_RNA)
RNA: GGGACCGUCGCCUCCGAUCUCUAUAUGGGGUGUACGAAGUUUCAGCAAGGCCCUUGGGCACCCCAGGCCUUGCUGAAGCUUCGUGCAC
B22: hsa-mir-141 (structured_RNA)
RNA: GGGACACUCGGAGAGAACCCUCAGGGAUGGUGUACGAAGUUUCAGCGUUGGAUGGUCUAAUUGUGAAGCUCCUAACGCUGAAGCUUCGUGCAC
B23: hsa-mir-105-1 (structured_RNA)
RNA: GGGAAUCUCAGAGCAUACUUGUGCGACGGGUGUACGAAGUUUCAGCCUGUGGUGGCUGCUCAUGCACCACGGGCUGAAGCUUCGUGCAC

molecular target: U1A (Homo sapiens, UniProt P09012); assay: FOREST: bead pull-down of RNA structure library v1, barcode microarray; U1A/LIN28A: 20 mM HEPES pH 7.5, 80 mM KCl, 20 mM NaCl, 10% glycerol, 2 mM DTT, 0.1 ug/uL BSA, 4 C; BG4/CIRBP/DHX36: 10 mM Tris-HCl pH 7.5, 100 mM KCl (or LiCl),; high values mean tight binding

Binder	binding signal [z-score]
B1	0.39
B2	0.39
B3	0.389
B4	0.388
B5	0.388
B6	0.387
B7	0.387
B8	0.386
B9	0.385
B10	0.384
B11	0.382
B12	0.382
B13	0.382
B14	0.381
B15	0.379
B16	0.379
B17	0.378
B18	1.98
B19	0.377
B20	0.377
B21	0.375
B22	0.372
B23	0.371

molecular target: T1, LIN28A; assay: as above

Binder	binding signal [z-score]
B1	0.0934
B2	0.576
B3	0.88
B4	-0.181
B5	2.19
B6	0.661
B7	-0.729
B8	0.448
B9	0.58
B10	-0.571
B11	-0.739
B12	-0.226
B13	-0.295
B14	2.02
B15	-1.24
B16	0.547
B17	-0.121
B18	0.779
B19	-1.02
B20	0.472
B21	-1.6
B22	0.077
B23	0.142

molecular target: T2, CIRBP; assay: as above

Binder	binding signal [z-score]
B1	-1.78
B2	0.208
B3	-0.923
B4	-1.06
B5	1.84
B6	0.462
B7	0.665
B8	-0.843
B9	0.314
B10	0.301
B11	-0.468
B12	0.863
B13	0.19
B14	0.807
B15	-0.204
B16	0.109
B17	-0.518
B18	-1.16
B19	-1.17
B20	-0.841
B21	-1.02
B22	0.209
B23	-0.379

molecular target: T3, DHX36; assay: as above

Binder	binding signal [z-score]
B1	-1.19
B2	-0.755
B3	0.12
B4	0.458
B5	1.27
B6	-0.224
B7	-0.723
B8	-0.574
B9	0.2
B10	0.242
B11	-0.716
B12	-0.0903
B13	-0.313
B14	0.674
B15	0.0862
B16	-0.268
B17	-0.152
B18	0.533
B19	0.156
B20	-0.0239
B21	0.212
B22	0.333
B23	-0.838
